Laboratory results as given in PubChem BioAssay AID2766 (Sanford-Burnham Center for Chemical Genomics, 2010).
The list shows a part of the results, in another mix than the full data. The source made the active and inactive calls. Cut-off read from the data, not from the text of the source: active = inhibition above about 50%; inactive = the rest.

Protein sequences, listed by entry. Tags and fused reporters are not part of them. Lines headed by an entry give the natural chain unless they say otherwise; changes in a name come on top.
UniProt P35414: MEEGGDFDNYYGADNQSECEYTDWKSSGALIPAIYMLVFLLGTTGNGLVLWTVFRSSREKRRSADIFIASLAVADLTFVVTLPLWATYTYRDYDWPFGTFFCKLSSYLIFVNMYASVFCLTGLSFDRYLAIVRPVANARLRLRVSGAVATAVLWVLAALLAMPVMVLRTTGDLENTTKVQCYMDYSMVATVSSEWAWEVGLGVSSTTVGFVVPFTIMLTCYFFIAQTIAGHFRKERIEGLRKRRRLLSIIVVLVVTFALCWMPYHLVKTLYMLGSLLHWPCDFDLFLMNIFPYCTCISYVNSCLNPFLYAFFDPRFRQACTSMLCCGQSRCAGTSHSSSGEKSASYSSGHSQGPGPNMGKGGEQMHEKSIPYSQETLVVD

Molecular target: Apelin receptor (Homo sapiens) (UniProt P35414)
Test: apelin receptor inhibitors, beta-arrestin readout – cell-based, luminescence, single concentration, uHTS hits, confirmation (AID 2766)
Settings: APJ beta-arrestin recruitment, antagonist mode, at 20 µM, hits give high values

C[N+]1=C2C=CC=CC=C2SC12C([N+](=O)[O-])=CC([N+](=O)[O-])=C[C-]2[N+](=O)[O-] (stereo unspecified)
inhibition: active: 79.5%
